Assays:
Experiment in all cases: radiometric filter-binding kinase assay, Kinase HotSpot
Details in all cases: compound 0.5 µM; ATP 10 µM
[1] = molecular target: MAPK12 (human) (UniProt P53778)
[2] = molecular target: DMPK (human) (UniProt Q09013)
[3] = molecular target: TGFBR1 (human) (UniProt P36897)
[4] = molecular target: CDC42BPA (human) (UniProt Q5VT25)
[5] = molecular target: MYLK2 (human) (UniProt Q9H1R3)
[6] = molecular target: MKNK2 (human) (UniProt Q9HBH9)
[7] = molecular target: JAK1 JH1 catalytic (human) (UniProt P23458)
[8] = molecular target: PIM1 (human) (UniProt P11309)
[9] = molecular target: FYN (human) (UniProt P06241)
[10] = molecular target: MARK1 (human) (UniProt Q9P0L2)
[11] = molecular target: FES (human) (UniProt P07332)
[12] = molecular target: RPS6KA4 KD2 (human) (UniProt O75676)
[13] = molecular target: SIK2 (human) (UniProt Q9H0K1)
[14] = molecular target: NUAK2 (human) (UniProt Q9H093)
[15] = molecular target: MAP2K1 (human) (UniProt Q02750)
[16] = molecular target: MAP3K8 (human) (UniProt P41279)
[17] = molecular target: STK16 (human) (UniProt O75716)
[18] = molecular target: STK3 (human) (UniProt Q13188)
[19] = molecular target: GRK4 (human) (UniProt P32298)
[20] = molecular target: WNK2 (human) (UniProt Q9Y3S1)
[21] = molecular target: EPHB3 (human) (UniProt P54753)
[22] = molecular target: LCK (human) (UniProt P06239)
[23] = molecular target: CAMK2G (human) (UniProt Q13555)
[24] = molecular target: AXL (human) (UniProt P30530)
[25] = molecular target: STK17A (human) (UniProt Q9UEE5)
[26] = molecular target: STK39 (human) (UniProt Q9UEW8)
[27] = molecular target: CSF1R (human) (UniProt P07333)
[28] = molecular target: FRK (human) (UniProt P42685)
[29] = molecular target: CAMKK1 (human) (UniProt Q8N5S9)
[30] = molecular target: SRMS (human) (UniProt Q9H3Y6)
[31] = molecular target: MAP3K10 (human) (UniProt Q02779)
[32] = molecular target: CSNK1G1 (human) (UniProt Q9HCP0)
[33] = molecular target: FER (human) (UniProt P16591)
[34] = molecular target: PDGFRB (human) (UniProt P09619)
[35] = molecular target: NEK7 (human) (UniProt Q8TDX7)
[36] = molecular target: JAK3 JH1 JH2 (human) (UniProt P52333)
[37] = molecular target: LIMK1 (human) (UniProt P53667)
[38] = molecular target: RPS6KB1 (human) (UniProt P23443)
[39] = molecular target: EPHA3 (human) (UniProt P29320)
[40] = molecular target: EGFR (human) (UniProt P00533)
[41] = molecular target: GRK7 (human) (UniProt Q8WTQ7)
[42] = molecular target: FGFR2 (human) (UniProt P21802)

By UniProt entry, the sequences of proteins in these tests, tags left out. Where a name states a change or a piece, a line headed by the entry shows the natural chain unless it says otherwise.
UniProt Q09013: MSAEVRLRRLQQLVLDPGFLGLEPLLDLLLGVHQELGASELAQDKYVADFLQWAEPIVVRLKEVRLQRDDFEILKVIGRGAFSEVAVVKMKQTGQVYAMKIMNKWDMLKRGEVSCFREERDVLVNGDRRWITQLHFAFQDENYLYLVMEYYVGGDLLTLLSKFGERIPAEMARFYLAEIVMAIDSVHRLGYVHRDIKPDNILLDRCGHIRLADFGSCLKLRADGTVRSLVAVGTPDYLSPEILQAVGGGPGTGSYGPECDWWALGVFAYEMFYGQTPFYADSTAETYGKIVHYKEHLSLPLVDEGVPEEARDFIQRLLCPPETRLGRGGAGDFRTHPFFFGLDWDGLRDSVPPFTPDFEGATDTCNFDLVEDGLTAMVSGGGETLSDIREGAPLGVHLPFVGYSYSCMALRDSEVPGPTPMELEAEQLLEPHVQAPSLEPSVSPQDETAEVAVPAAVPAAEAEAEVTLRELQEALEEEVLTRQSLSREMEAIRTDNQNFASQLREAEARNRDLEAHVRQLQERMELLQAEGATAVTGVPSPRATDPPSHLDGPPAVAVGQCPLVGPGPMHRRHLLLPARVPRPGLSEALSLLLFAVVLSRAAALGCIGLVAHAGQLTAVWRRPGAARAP
UniProt P11309, whole entry, looked up: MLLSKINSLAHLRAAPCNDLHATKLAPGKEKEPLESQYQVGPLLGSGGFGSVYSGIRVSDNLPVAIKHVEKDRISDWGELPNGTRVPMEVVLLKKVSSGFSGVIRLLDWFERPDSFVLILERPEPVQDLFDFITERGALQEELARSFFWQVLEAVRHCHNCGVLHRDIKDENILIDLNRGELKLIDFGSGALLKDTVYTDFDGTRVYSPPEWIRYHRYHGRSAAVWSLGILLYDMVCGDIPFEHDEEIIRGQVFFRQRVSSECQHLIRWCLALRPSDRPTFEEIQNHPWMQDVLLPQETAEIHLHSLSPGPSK
UniProt Q9P0L2: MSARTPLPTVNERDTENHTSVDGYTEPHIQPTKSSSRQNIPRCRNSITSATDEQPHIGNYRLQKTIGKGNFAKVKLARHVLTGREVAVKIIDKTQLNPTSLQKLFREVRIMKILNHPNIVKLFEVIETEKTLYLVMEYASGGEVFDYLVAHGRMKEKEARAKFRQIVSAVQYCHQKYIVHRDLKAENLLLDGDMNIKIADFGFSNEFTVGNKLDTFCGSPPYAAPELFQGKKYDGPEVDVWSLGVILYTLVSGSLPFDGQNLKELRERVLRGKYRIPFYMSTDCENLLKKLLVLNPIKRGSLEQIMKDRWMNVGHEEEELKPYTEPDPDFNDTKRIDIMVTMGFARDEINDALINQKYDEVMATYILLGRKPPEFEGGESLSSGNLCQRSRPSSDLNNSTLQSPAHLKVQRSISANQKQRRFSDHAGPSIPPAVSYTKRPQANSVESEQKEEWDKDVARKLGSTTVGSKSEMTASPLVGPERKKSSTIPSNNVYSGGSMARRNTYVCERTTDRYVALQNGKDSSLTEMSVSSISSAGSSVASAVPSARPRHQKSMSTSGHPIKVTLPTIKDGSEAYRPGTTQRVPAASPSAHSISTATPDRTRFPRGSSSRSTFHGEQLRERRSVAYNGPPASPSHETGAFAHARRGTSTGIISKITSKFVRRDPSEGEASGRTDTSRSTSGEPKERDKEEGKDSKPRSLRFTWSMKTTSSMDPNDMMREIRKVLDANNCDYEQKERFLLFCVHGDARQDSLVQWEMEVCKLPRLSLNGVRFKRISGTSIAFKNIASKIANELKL
UniProt O75676: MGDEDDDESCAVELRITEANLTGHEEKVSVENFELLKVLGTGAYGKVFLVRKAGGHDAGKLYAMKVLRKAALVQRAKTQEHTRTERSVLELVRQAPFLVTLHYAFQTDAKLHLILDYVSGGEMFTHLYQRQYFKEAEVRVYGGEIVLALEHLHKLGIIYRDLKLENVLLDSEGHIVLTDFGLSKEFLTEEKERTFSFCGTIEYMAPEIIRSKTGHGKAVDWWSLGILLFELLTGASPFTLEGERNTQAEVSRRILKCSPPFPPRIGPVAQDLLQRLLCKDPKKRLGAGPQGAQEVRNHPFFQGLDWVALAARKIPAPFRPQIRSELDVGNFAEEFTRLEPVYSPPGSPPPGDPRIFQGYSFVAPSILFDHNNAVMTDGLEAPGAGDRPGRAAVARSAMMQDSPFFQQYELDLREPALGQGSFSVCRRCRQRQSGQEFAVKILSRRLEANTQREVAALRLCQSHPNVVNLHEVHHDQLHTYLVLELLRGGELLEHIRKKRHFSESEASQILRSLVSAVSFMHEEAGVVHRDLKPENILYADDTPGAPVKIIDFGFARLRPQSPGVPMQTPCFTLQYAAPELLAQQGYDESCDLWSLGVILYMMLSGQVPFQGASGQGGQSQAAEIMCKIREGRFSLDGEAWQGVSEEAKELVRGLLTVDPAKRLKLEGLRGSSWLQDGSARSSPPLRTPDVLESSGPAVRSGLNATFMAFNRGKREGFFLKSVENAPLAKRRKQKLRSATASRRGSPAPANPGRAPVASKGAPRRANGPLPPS
UniProt Q13188: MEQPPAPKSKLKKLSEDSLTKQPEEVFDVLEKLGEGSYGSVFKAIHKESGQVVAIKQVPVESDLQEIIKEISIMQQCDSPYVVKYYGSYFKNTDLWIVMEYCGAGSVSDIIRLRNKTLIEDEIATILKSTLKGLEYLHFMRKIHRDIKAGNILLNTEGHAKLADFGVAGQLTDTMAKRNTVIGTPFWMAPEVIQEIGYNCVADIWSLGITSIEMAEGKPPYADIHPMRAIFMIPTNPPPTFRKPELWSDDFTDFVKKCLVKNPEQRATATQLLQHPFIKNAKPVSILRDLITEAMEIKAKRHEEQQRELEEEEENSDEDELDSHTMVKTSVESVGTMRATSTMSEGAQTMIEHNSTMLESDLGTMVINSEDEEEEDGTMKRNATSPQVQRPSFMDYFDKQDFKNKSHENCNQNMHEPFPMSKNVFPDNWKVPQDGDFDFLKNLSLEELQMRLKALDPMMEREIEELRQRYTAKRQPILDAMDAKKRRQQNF
UniProt Q9UEE5: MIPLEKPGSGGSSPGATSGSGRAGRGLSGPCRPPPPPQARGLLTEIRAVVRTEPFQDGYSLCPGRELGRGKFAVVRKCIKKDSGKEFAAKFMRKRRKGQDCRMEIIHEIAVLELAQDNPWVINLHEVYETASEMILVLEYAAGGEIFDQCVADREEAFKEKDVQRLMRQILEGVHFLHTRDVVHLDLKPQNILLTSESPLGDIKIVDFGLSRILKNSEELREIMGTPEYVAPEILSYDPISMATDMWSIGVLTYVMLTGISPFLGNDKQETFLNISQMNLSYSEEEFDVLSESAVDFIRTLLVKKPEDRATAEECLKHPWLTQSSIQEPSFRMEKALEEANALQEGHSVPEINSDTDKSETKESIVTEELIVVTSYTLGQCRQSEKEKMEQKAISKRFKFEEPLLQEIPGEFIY
UniProt P42685: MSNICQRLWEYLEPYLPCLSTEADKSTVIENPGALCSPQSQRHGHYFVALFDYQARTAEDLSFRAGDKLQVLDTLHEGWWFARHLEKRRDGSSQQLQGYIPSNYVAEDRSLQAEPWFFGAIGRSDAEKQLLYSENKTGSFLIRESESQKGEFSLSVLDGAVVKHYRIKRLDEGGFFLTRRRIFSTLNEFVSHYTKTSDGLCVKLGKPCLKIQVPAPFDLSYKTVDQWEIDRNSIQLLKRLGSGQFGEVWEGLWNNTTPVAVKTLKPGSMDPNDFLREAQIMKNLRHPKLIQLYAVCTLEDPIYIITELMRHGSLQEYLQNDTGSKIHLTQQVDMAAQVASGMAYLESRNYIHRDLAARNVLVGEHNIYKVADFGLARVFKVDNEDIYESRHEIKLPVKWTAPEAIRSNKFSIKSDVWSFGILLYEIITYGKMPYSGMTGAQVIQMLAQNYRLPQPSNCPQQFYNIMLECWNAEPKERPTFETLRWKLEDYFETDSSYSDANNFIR
UniProt Q9HCP0: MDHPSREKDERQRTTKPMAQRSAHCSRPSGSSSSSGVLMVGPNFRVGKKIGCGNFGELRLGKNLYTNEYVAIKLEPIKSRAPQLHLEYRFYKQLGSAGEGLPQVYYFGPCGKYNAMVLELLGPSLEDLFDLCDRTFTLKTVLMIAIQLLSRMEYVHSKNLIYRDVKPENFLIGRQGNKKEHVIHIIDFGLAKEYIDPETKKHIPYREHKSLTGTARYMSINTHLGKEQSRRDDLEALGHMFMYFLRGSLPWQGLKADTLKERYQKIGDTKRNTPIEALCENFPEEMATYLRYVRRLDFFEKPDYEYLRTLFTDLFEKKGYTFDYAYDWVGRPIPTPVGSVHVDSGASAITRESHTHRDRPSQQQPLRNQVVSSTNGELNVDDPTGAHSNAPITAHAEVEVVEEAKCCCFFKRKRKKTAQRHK
UniProt P09619, whole entry, looked up: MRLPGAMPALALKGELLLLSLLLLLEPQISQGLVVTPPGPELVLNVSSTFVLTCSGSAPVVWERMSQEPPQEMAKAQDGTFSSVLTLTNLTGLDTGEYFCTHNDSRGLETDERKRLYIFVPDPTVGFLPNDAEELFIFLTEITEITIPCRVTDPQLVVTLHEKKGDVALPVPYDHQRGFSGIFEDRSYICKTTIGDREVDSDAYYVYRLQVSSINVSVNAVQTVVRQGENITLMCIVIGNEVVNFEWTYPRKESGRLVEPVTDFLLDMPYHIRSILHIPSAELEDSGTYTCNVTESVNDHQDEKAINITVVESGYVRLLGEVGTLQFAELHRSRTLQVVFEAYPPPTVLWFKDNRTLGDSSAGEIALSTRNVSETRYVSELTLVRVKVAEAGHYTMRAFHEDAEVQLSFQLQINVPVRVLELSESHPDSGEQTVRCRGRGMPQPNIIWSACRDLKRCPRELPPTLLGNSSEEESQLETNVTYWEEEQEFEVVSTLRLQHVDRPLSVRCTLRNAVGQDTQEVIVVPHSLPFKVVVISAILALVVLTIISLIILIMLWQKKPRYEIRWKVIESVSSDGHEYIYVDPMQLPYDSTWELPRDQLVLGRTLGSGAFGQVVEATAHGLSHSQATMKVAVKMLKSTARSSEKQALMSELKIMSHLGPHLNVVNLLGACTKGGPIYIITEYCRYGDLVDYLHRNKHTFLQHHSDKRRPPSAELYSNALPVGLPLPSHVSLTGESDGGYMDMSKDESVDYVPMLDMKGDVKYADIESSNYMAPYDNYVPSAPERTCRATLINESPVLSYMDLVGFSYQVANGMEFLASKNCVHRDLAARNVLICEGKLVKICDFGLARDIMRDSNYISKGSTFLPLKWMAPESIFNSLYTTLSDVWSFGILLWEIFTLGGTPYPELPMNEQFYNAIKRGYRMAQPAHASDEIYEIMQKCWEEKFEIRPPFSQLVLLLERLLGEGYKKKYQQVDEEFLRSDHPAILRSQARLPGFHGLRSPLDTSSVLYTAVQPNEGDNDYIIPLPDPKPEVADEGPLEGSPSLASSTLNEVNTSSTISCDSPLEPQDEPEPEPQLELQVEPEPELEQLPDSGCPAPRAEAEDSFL
UniProt P52333: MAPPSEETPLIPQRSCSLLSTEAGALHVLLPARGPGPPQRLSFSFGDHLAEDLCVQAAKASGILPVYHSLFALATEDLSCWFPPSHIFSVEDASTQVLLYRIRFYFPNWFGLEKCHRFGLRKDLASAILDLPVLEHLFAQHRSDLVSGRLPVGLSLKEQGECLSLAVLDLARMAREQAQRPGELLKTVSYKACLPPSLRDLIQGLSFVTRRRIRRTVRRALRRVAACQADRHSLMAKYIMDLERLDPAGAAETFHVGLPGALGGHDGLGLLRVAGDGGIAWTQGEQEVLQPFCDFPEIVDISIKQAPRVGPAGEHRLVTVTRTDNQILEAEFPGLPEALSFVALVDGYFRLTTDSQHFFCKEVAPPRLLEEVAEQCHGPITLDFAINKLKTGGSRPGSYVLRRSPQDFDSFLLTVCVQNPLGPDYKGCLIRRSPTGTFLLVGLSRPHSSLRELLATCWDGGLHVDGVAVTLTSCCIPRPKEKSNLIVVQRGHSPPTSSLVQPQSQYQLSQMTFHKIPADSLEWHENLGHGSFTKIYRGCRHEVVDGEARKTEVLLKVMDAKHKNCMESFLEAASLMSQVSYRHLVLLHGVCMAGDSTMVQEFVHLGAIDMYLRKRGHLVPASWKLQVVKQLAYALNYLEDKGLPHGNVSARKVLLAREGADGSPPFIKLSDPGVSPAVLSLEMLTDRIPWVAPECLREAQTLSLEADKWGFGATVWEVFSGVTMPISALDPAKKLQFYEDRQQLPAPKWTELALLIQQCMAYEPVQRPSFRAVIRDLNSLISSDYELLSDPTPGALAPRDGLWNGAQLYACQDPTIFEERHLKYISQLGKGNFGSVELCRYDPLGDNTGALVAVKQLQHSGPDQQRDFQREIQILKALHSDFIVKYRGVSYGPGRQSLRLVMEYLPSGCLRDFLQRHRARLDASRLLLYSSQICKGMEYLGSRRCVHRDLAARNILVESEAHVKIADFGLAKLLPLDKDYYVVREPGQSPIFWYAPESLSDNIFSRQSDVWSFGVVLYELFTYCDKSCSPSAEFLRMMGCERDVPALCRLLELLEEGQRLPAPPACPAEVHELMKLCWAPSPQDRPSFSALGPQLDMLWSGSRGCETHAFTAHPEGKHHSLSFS

With `CO[C@H]1[C@@H](OC)C[C@H](C)[C@@H](OC)C2=CC(=O)C=C(NC(=O)/C(C)=C\C=C/[C@H](OC)[C@@H](OC(N)=O)/C(C)=C\[C@@H]1C)C2=O` as the molecule, how does the residual activity [1] read?
Its residual activity is 95.4%.

And the residual activity [2]?
Its residual activity is 99.5%.

What about the residual activity [3] of the same molecule?
The residual activity was 103%.

What about the residual activity [4] of the same molecule?
Its residual activity is 91.6%.

What about the residual activity [5] of the same molecule?
The residual activity was 93.7%.

And the residual activity [6]?
The residual activity was 91.5%.

And the residual activity [7]?
Its residual activity is 99%.

And the residual activity [8]?
Its residual activity is 98.8%.

And the residual activity [9]?
Its residual activity is 99.3%.

What about the residual activity [10] of the same molecule?
Its residual activity is 90.5%.

And the residual activity [11]?
Its residual activity is 96%.

And the residual activity [12]?
Its residual activity is 96.7%.

And the residual activity [13]?
Its residual activity is 103%.

And the residual activity [14]?
Its residual activity is 106%.

And the residual activity [15]?
Its residual activity is 99%.

And the residual activity [16]?
The residual activity was 98%.

And the residual activity [17]?
Its residual activity is 101%.

And the residual activity [18]?
Its residual activity is 95%.

What about the residual activity [19] of the same molecule?
The residual activity was 103%.

What about the residual activity [20] of the same molecule?
The residual activity was 98.3%.

What about the residual activity [21] of the same molecule?
Its residual activity is 91.3%.

What about the residual activity [22] of the same molecule?
Its residual activity is 91.8%.

What about the residual activity [23] of the same molecule?
Its residual activity is 89.6%.

And the residual activity [24]?
The residual activity was 95.3%.

And the residual activity [25]?
Its residual activity is 92.9%.

What about the residual activity [26] of the same molecule?
Its residual activity is 86.5%.

What about the residual activity [27] of the same molecule?
The residual activity was 104%.

What about the residual activity [28] of the same molecule?
Its residual activity is 96.7%.

What about the residual activity [29] of the same molecule?
Its residual activity is 119%.

What about the residual activity [30] of the same molecule?
The residual activity was 95.8%.

What about the residual activity [31] of the same molecule?
Its residual activity is 101%.

What about the residual activity [32] of the same molecule?
The residual activity was 101%.

What about the residual activity [33] of the same molecule?
The residual activity was 88.2%.

What about the residual activity [34] of the same molecule?
The residual activity was 104%.

What about the residual activity [35] of the same molecule?
Its residual activity is 100%.

And the residual activity [36]?
Its residual activity is 95.4%.

And the residual activity [37]?
The residual activity was 89.1%.

What about the residual activity [38] of the same molecule?
Its residual activity is 95.6%.

What about the residual activity [39] of the same molecule?
The residual activity was 98%.

And the residual activity [40]?
Its residual activity is 95.1%.

What about the residual activity [41] of the same molecule?
Its residual activity is 103%.

And the residual activity [42]?
Its residual activity is 110%.

Source: the kinase profiling compilation of Christmann-Franck et al. (2016)
